From US20220056123A1, “USE OF IL-1BETA BINDING ANTIBODIES” (NOVARTIS AG, priority 2018, published 2022)

Target: IL-1β (Homo sapiens, UniProt P01584)
Test: In vitro potency (IC50) of IL-1β antibodies
Assay type: biochemical

in vitro potency compared to canakinumab: ~10 times higher
IC50 (in vitro potency): 2 to 5 µM
Substance: gevokizumab: high-affinity, humanized monoclonal antibody of the IgG2 isotype to interleukin-1β
